Results on one substance are retold here after patent publication US8057659B2, “Detection of analytes in a dual-mediator electrochemical test strip” (AgaMatrix, Inc., priority 2006, dated 2011).

For the data set the following is noted: PF6 salt of the complex.

On to [Os(MeBpy)2(Im)2]^2+/3+, for which the solubility result is on record as “less than 1 mM”.
